Hits are enriched below; roughly 1.2% of the tested compounds scored in any of these assays.
Rce1 inhib: yeast Ras-converting enzyme inhibition; Q03530; AID 2563; calls only; yeast membranes, quenched prenylated peptide cleavage fluorescence; 290,000 compounds, 0.27% hits;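 active = fall in fluorescence gain of 50% or more versus controls, with final raw signal at or below 3038400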;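 note: plate controls were neutral control wells for no effect and wells lacking membranes for full effect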
Tb MetRS inh: blocks T. brucei methionyl-tRNA synthetase activity. inhibition, % at 11.9 µM. 360,000 compounds, 0.4% hits. purified T. brucei MetRS, ATP depletion, Kinase-Glo luminescence. AID 624268;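 active = inhibition above a per-plate cutoff of the control wells' mean inhibition plus 3 SD, cut at about 5.5% in these data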;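 note: 0% = DMSO wells median and 100% = median of wells with control inhibitor compound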
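Material – parasite MetRS enzyme · Medium – HEPES-MgCl2-KCl buffer plus DTT, spermine, BSA, pyrophosphatase · Reagent – ATP, methionine and E. coli bulk tRNA substrates · Times – 15 min enzyme-compound preincubation, 2 h reaction, 10 min detection, 25 °C · Measured by – luminescence of leftover ATP · Evaluation – percent inhibition relative to median high and low control wells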
Pemphigus Ab inh: human desmoglein-3 autoantibody binding inhibition | DSG3-coupled beads, scFv-anti-DSG3-GFP binding, flow cytometry; active compounds read low | 310,000 compounds, 0.48% hits | AID 588358 | binding (percent of control), % at 10 µM | P32926;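 active = binding more than 3 SD below its plate's average and above zero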;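 note: hits lower antibody fragment binding to DSG3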
UUG fidelity: modulators of start codon recognition fidelity in yeast; AID 602363; hit rate 0.13% among 350,000; activity score, % at 18.7 µM; S. cerevisiae UUG-firefly luciferase reporter, luminescence/redox ratio;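 active = replicate mean at a twofold rise or more, about +100% in these data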;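 note: firefly luciferase made from a UUG start codon reports start codon fidelity; reporter light over untreated wells divided by growth signal over untreated wells; some hits fall short of that in this replicate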
Arrestin-AP2 inh: human beta-arrestin and AP2 interaction inhibition. 340,000 compounds, 0.31% hits. FITC-arrestin peptide / GST-AP2 beads, flow cytometry; AP2 beta2 appendage carries R879A mutation. inhibition, % at 10 µM;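 active = inhibition above a set limit, near 3 SD of compounds lacking own fluorescence, cut at about 54% in these data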;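 note: plate controls were DMSO wells for no effect and 5 µM unlabelled arrestin peptide for full effect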
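System: GST-AP2 R879A glutathione beads. Medium: PBS with 0.05% Tween 20 and 0.1% BSA. Also added: FITC-arrestin peptide, 50 nM. Incubation: 12 min plus 1 h, RT. Measured by: high-throughput flow cytometry of beads, ex 488, em 535 nm. Evaluation: percent drop in bead-associated FITC signal.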
Arr AP2 CP1: blocks beta-arrestin peptide binding to human AP2. 1,300 compounds, 2% hits. inhibition, % at 10 µM. shares compounds with Arrestin-AP2 inh. GST-AP2 beads, FITC arrestin peptide binding, flow cytometry; GST-fused beta2-adaptin appendage, R879A mutant;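 active = inhibition above a set limit, roughly 3 SD of non-fluorescent compound noise, cut at about 38% in these data; inactive = inhibition at or below that limit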;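 note: loss of bead fluorescence from 50 nM FITC arrestin peptide bound to appendage; 0% = negative control wells and 100% = excess unlabelled arrestin peptide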
GST GSH counter: GST-GSH bead binding interference, counter-screen; GST-fluorescein binding to GSH beads, fluorescence; 1,300 compounds, 2% hits; shares compounds with Arrestin-AP2 inh; inhibition, % at 10 µM;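 active = inhibition above 50%, about 3 SD of the inhibition seen with non-fluorescent compounds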;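 note: fluorescein maleimide labelled GST captured on 4 micron glutathione beads; higher means more loss of bead fluorescence from quenching or blocked binding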
Active calls of the source: *; i = inactive; x = no result given.

[1] CCn1ccnc1CNC(=O)C1CCC(=O)N(Cc2ccccc2F)C1 (stereo not given)
[2] COc1ccccc1CCNC(=O)C1CCC(=O)N(Cc2ccccc2OC)C1 (stereo not given)
[3] COc1ccccc1CN1CC(C(=O)NCCc2ccc(C)o2)CCC1=O (stereo not given)
[4] COc1ccccc1CN1CC(C(=O)NCc2ccc(C)c(F)c2)CCC1=O (stereo not given)
[5] CCCN(C)C[C@@H]1OCCCC[C@H](C)Oc2ccc(NS(C)(=O)=O)cc2C(=O)N([C@@H](C)CO)C[C@H]1C
[6] CC(OC(=O)c1nn(C(C)C)c(=O)c2ccccc12)C(=O)Nc1ncc(Cl)cc1Cl (stereo not given)

| Assay by compound | 1 | 2 | 3 | 4 | 5 | 6 |
| --- | --- | --- | --- | --- | --- | --- |
| Rce1 inhib | i | i | i | i | x | i |
| Tb MetRS inh | 0 | 0 | 1 | 0 | x | -1 |
| Pemphigus Ab inh | x | 111 | 107 | x | x | 121 |
| UUG fidelity | -21 | 4 | 4 | 2 | 16 | -9 |
| Arrestin-AP2 inh | 54* | 66* | 37 | 22 | x | 61* |
| Arr AP2 CP1 | -9 | 9 | x | -8 | x | -9 |
| GST GSH counter | 3 | -3 | x | -2 | x | 1 |

Record cards, as listed above:
CCCN(C)C[C@@H]1OCCCC[C@H](C)Oc2ccc(NS(C)(=O)=O)cc2C(=O)N([C@@H](C)CO)C[C@H]1C across the screens: Rce1 inhib = x; Tb MetRS inh = x; Pemphigus Ab inh = x; UUG fidelity = 16; Arrestin-AP2 inh = x; Arr AP2 CP1 = x; GST GSH counter = x
COc1ccccc1CN1CC(C(=O)NCCc2ccc(C)o2)CCC1=O (stereo not given) across the screens: Rce1 inhib = i; Tb MetRS inh = 1; Pemphigus Ab inh = 107; UUG fidelity = 4; Arrestin-AP2 inh = 37; Arr AP2 CP1 = x; GST GSH counter = x

Next section:
[7] C[C@H](CO)N1C[C@H](C)[C@H](CN(C)C(=O)Nc2ccc(F)cc2)OCCCC[C@H](C)Oc2ccc(NC(=O)NC3CCCCC3)cc2C1=O
[8] O=C(NNC1=NS(=O)(=O)c2ccccc21)c1ccc(Cl)cc1
[9] O=C(NNC1=NS(=O)(=O)c2ccccc21)c1ccc([N+](=O)[O-])cc1
[10] N#Cc1c(NC(=O)CSc2ncnc3c2cnn3-c2ccccc2Cl)sc2c1CCCC2
[11] CCCOc1ccc(C(CC(=O)O)NC(=O)c2sc3ccccc3c2Cl)cc1 (stereo not given)
[12] CCOc1ccc(C(CC(=O)O)NC(=O)c2sc3ccccc3c2Cl)cc1 (stereo not given)

| Assay by compound | 7 | 8 | 9 | 10 | 11 | 12 |
| --- | --- | --- | --- | --- | --- | --- |
| Rce1 inhib | x | i | i | x | i | i |
| Tb MetRS inh | x | -1 | -1 | 0 | 0 | -1 |
| Pemphigus Ab inh | x | 94 | x | 91 | 103 | 113 |
| UUG fidelity | -4 | x | -41 | -15 | x | x |
| Arrestin-AP2 inh | x | 58* | 18 | 60* | -15 | 104* |
| Arr AP2 CP1 | x | -11 | x | -19 | x | -4 |
| GST GSH counter | x | 0 | x | 0 | x | -4 |

[13] CCOc1ccc(NC(=O)c2ccc(NC(=O)COC(=O)Cc3ccc(OC)cc3)cc2)cc1
[14] CCCc1cn(CC[C@@H]2CC[C@@H](NC(=O)Cc3cccnc3)[C@@H](CO)O2)nn1
[15] CCOc1ccc(NS(=O)(=O)c2cccc(C(=O)NCC3(N(C)C)CCCCC3)c2)cc1
[16] COc1ccc(NC(=O)c2cccc(S(=O)(=O)N3CCOCC3)c2)cc1
[17] COc1ccc(C(=O)NNC(=O)c2cccc(S(=O)(=O)N3CCOCC3)c2)cc1
[18] COc1ccc(NS(=O)(=O)c2cccc(C(=O)NCC3(N4CCCCC4)CCCCC3)c2)cc1

| Assay by compound | 13 | 14 | 15 | 16 | 17 | 18 |
| --- | --- | --- | --- | --- | --- | --- |
| Rce1 inhib | i | x | x | i | x | i |
| Tb MetRS inh | 0 | x | 0 | 0 | 0 | 0 |
| Pemphigus Ab inh | 99 | x | 106 | 103 | 103 | 109 |
| UUG fidelity | x | -16 | x | -3 | -20 | x |
| Arrestin-AP2 inh | 55* | x | -5 | 61* | 4 | -19 |
| Arr AP2 CP1 | 5 | x | 5 | -6 | x | 12 |
| GST GSH counter | -5 | x | -12 | -6 | x | 6 |

[19] COc1ccc(NS(=O)(=O)c2cccc(C(=O)NCC(c3ccco3)N3CCCCC3)c2)cc1 (stereo not given)
[20] C[C@@H]1CN([C@H](C)CO)C(=O)Cc2cc(NC(=O)Nc3ccc4c(c3)OCO4)ccc2O[C@H]1CN(C)CC1CC1
[21] C[C@@H]1CN([C@H](C)CO)C(=O)c2cc(NC(=O)c3ccncc3)ccc2O[C@H]1CN(C)Cc1ccc2c(c1)OCO2
[22] Cc1cccc(NC(=O)c2cccc(S(=O)(=O)Nc3ccccc3C(=O)O)c2)c1
[23] CNS(=O)(=O)c1cccc(C(=O)NCC2(N3CCCCC3)CCCCC2)c1
[24] O=C(Nc1ccccc1C(=O)O)c1cccc(S(=O)(=O)Nc2ccc(Br)cc2)c1

| Assay by compound | 19 | 20 | 21 | 22 | 23 | 24 |
| --- | --- | --- | --- | --- | --- | --- |
| Rce1 inhib | i | x | x | i | x | i |
| Tb MetRS inh | 0 | x | x | -1 | 0 | 2 |
| Pemphigus Ab inh | 105 | x | x | 103 | 100 | 104 |
| UUG fidelity | -8 | -20 | 0 | -22 | 0 | -12 |
| Arrestin-AP2 inh | 59* | x | x | 58* | -26 | 33 |
| Arr AP2 CP1 | 27 | x | x | -8 | x | x |
| GST GSH counter | -4 | x | x | -7 | x | x |

[25] COc1ccc(NS(=O)(=O)c2cccc(C(=O)NCC3(N4CCOCC4)CCCCC3)c2)cc1
[26] Cc1cccc(NS(=O)(=O)c2cccc(C(=O)NCC3(N4CCCCC4)CCCCC3)c2)c1
[27] O=C(CCNC(=O)c1ccc([N+](=O)[O-])cc1)NCCC1=CCCCC1
[28] O=C(CCNC(=O)c1ccc(Cl)cc1)NCCC1=CCCCC1
[29] Cc1noc(C)c1S(=O)(=O)N(C)C[C@@H]1Oc2c(NC(=O)c3ccc(-c4nccs4)cc3)cccc2C(=O)N([C@@H](C)CO)C[C@@H]1C
[30] O=[N+]([O-])c1ccc(NS(=O)(=O)c2cccc3cccnc23)cc1

| Assay by compound | 25 | 26 | 27 | 28 | 29 | 30 |
| --- | --- | --- | --- | --- | --- | --- |
| Rce1 inhib | i | i | i | i | x | i |
| Tb MetRS inh | 0 | 0 | 0 | 0 | x | 0 |
| Pemphigus Ab inh | 118 | 103 | 103 | 109 | x | 100 |
| UUG fidelity | -13 | 5 | 0 | x | 2 | 5 |
| Arrestin-AP2 inh | -9 | -10 | -1 | 64* | x | 55* |
| Arr AP2 CP1 | 9 | -5 | x | -10 | x | -2 |
| GST GSH counter | -6 | -3 | x | -4 | x | -2 |

[31] COc1cc(/C=C/C(=O)O)ccc1OS(=O)(=O)c1cc(Br)ccc1C
[32] COc1ccc(C(=O)/C=C2/Sc3cc4c(cc3N2C)OCO4)cc1
[33] CN1/C(=C/C(=O)c2ccc(Cl)cc2)Sc2cc3c(cc21)OCO3
[34] COc1ccc2c(c1)S/C(=C\C(=O)c1ccncc1)N2C
[35] COc1cc(OC)cc(C(=O)/C=C2\Sc3ccccc3N2C)c1
[36] CCOc1ccc(S(=O)(=O)N2CCCCC2)cc1NC(=O)c1cccnc1OCC

| Assay by compound | 31 | 32 | 33 | 34 | 35 | 36 |
| --- | --- | --- | --- | --- | --- | --- |
| Rce1 inhib | x | i | i | i | i | x |
| Tb MetRS inh | 0 | -1 | 0 | 0 | 0 | 0 |
| Pemphigus Ab inh | 108 | 110 | 111 | 98 | 96 | 104 |
| UUG fidelity | -12 | x | x | 48 | 10 | -10 |
| Arrestin-AP2 inh | 56* | 36 | 103* | 91* | 22 | 14 |
| Arr AP2 CP1 | -7 | x | -1 | 5 | x | -7 |
| GST GSH counter | 5 | x | -5 | -2 | x | 15 |

[37] COc1ccc(S(=O)(=O)N2CCN(C)CC2)cc1NC(=O)c1ccccc1C
[38] CCOc1ccc(S(=O)(=O)N2CCCCC2)cc1NC(=O)c1ccccc1
[39] CCOc1ncccc1C(=O)Nc1ccc(OC)c(S(=O)(=O)N2CCOCC2)c1
[40] COc1ccc(S(=O)(=O)N2CCN(C)CC2)cc1C(=O)Nc1ccccc1
[41] COc1ccc(NC(=O)c2cc(-c3ccco3)nc3ccccc23)cc1S(=O)(=O)N1CCOCC1
[42] COc1ccc(NC(=O)c2cc(C)nc3ccccc23)cc1S(=O)(=O)N1CCOCC1
[43] Cc1noc(C)c1S(=O)(=O)N(C)C[C@@H]1Oc2ccc(NS(=O)(=O)c3cn(C)cn3)cc2CC(=O)N([C@@H](C)CO)C[C@H]1C

| Assay by compound | 37 | 38 | 39 | 40 | 41 | 42 | 43 |
| --- | --- | --- | --- | --- | --- | --- | --- |
| Rce1 inhib | i | x | x | i | i | x | x |
| Tb MetRS inh | 0 | -1 | -1 | -1 | -1 | 0 | x |
| Pemphigus Ab inh | 104 | 102 | 100 | 97 | 86 | 91 | x |
| UUG fidelity | -16 | -6 | x | -19 | -9 | -7 | 18 |
| Arrestin-AP2 inh | 26 | -5 | 0 | 43 | -12 | 6 | x |
| Arr AP2 CP1 | -1 | x | 1 | x | x | -10 | x |
| GST GSH counter | -4 | x | 3 | x | x | -5 | x |
